By UniProt entry, the sequences of proteins in these tests, tags left out. Where a name states a change or a piece, a line headed by the entry shows the natural chain unless it says otherwise.
UniProt P20272, whole entry, looked up: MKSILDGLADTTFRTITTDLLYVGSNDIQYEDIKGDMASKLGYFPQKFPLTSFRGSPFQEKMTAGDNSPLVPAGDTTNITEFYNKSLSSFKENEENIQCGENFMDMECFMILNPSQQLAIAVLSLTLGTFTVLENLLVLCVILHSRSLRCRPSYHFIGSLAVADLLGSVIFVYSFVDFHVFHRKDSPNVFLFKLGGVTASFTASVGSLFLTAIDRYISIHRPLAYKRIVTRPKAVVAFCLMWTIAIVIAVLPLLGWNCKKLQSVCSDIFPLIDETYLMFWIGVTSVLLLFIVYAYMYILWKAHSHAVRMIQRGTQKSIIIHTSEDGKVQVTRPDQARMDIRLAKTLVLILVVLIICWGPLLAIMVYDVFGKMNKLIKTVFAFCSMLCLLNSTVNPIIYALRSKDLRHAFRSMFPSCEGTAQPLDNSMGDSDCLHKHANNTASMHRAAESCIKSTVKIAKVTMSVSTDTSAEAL
UniProt P47936: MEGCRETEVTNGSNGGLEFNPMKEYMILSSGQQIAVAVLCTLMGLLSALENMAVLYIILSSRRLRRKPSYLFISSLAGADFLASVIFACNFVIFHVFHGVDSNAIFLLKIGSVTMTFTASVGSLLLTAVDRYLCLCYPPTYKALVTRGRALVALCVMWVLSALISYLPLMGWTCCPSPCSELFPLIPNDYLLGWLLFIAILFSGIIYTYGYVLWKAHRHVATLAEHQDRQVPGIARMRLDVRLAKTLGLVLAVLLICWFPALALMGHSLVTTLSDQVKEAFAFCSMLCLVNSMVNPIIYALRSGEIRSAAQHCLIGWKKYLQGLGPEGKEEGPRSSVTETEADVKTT
UniProt P34972, whole entry, looked up: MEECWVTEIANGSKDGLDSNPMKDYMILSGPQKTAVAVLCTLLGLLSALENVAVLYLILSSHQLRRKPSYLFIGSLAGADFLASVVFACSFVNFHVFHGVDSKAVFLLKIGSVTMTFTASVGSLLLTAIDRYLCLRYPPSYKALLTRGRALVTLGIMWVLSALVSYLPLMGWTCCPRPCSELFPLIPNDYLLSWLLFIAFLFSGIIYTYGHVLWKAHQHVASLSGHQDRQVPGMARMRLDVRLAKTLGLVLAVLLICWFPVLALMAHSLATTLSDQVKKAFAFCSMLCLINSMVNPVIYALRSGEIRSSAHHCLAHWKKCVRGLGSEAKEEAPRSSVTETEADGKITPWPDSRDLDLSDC

In ChEMBL document CHEMBL4359929, “Piperidine and piperazine inhibitors of fatty acid amide hydrolase targeting excitotoxic pathology” (Bioorg Med Chem, 2019):

What was measured:
[1] = target: Cannabinoid receptor 1 (Rattus norvegicus) (UniProt P20272); test: Displacement of [3H]CP55940 from CB1 receptor in rat brain by competition-equilibrium binding analysis; format: tissue-based
Method in brief: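 Rat brain membranes as CB1 source; competition-equilibrium binding against [3H]CP-55,940.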

[2] = target: T1, Cannabinoid receptor 2 (Rattus norvegicus) (UniProt Q9QZN9); test: Displacement of [3H]CP55940 from CB2 receptor in rat brain by competition-equilibrium binding analysis; format: tissue-based
T1 sequence (whole entry): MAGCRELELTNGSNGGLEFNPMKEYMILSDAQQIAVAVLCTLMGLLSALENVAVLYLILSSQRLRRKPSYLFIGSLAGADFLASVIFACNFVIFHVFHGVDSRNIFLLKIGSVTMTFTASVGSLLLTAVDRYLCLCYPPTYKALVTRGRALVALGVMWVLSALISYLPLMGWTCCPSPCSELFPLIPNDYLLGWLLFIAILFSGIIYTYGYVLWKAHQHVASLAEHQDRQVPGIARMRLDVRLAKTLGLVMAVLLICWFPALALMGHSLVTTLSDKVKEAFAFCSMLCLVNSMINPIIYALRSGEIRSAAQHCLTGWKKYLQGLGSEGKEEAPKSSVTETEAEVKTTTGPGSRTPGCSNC

[3] = target: Cannabinoid receptor 2 (Mus musculus) (UniProt P47936); test: Displacement of [3H]CP55940 from mouse CB2 receptor expressed in HEK293 cells by competition-equilibrium binding analysis; format: cell-based
Method in brief: (§1)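 HEK293 cell membranes expressing mouse or human CB2; competition-equilibrium binding against [3H]CP-55,940.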

[4] = target: Cannabinoid receptor 2 (Homo sapiens) (UniProt P34972); test: Displacement of [3H]CP55940 from human CB2 receptor expressed in HEK293 cells by competition-equilibrium binding analysis; format: cell-based; method in brief: as §1

Measured: Activity

O=C(Oc1cncc(N2CCS(=O)(=O)CC2)c1)N1CCC(c2ccc(F)cc2)CC1
inactive: all assays above

The source made the active and inactive calls.
